# Source: publication PMC5553550 (Nature nanotechnology, 2017)
# Tested on: rat spine (L4-L5)
# Experiment: Micro-computed tomography of rat fusion mass
# Format: in vivo
# Conditions: PA 1 with 100 ng BMP-2 (synchrotron μCT); BMP-2 alone 10 μg (μCT)
molecule,measurement,value
"BMP-2: bone morphogenetic protein (BMP)-2, growth factor important in bone formation (protein, UniProt P12643 283-396, looked up) Bone morphogenetic protein 2: QAKHKQRKRLKSSCKRHPLYVDFSDVGWNDWIVAPPGYHAFYCHGECPFPLADHLNSTNHAIVQTLVNSVNSKIPKACCVPTELSAISMLYLDENEKVVLKNYQDMVVEGCGCR",fusion morphology (μCT),multilevel fusions
